In brackets after ≈: the same amount, converted by molar mass.
Details: experimental values, compiled

## NNP(=S)(NN)c1ccccc1
  solubility: 37.6 mM (≈ 7600 µg/mL)

Reference: the OPERA property sets (Mansouri et al. 2018)
